According to article PMC8958505, “Discovery of Potential Neuroprotective Agents against Paclitaxel-Induced Peripheral Neuropathy” (Journal of Medicinal Chemistry, 2022):
Where a name gives a salt, the structure may show the parent alone. Read-outs that look alike come from different tables or passages of the source.

Tests used:
[1] = system: mouse primary DRG neurons; experiment: Neurite outgrowth assay of DRG neurons (image-based HCS) against paclitaxel-induced neurotoxicity; format: cell-based; conditions: for activation at 1 µM: Mus musculus, DRG neuron
Experimental: All these 19 compounds were then subjected to the neurite outgrowth assay of dorsal root ganglion (DRG) neurons paired with an image-based HCS to analyze whether they had neuroprotective potential. Quantification of neurite outgrowth under different regimens is shown in Figure 3, wherein DRG neurons incubated in 50 nM paclitaxel could cause 60% reduction in neurite outgrowth compared to the control (no drug treatment). […] Taken together, CN016 is selected as a promising lead for further development.
Primary cortical or DRG cells were fixed with 4% paraformaldehyde for 15 min following compound and paclitaxel treatment. After washing with PBS, the fixed cells were permeabilized with PBS containing 0.05% Triton X-100 for 20 min and then blocked with commercial blocking buffer (#GTX30963; GeneTex, USA) at room temperature for 1 h. Subsequently, the cortical cells were stained for the extending processes and synaptic puncta by using anti-MAP2 (#MBS502140, 1:500; Mybiosource, USA) and anti-synaptophysin (#ab32127, 1:500; Abcam, UK) overnight. DRG cells were stained for the neurite and neuron nucleus by using anti-β III tubulin (#D71G9, 1:600; Cell Signaling, USA) and anti-NeuN monoclonal antibody (#MAB377, 1:400; Millipore, USA) overnight. On the second day, the samples were washed for 30 min with wash buffer and incubated with secondary antibodies (Alexa-488, 647 1:600; Thermo Fisher, USA) and 4 μg/mL Hoechst 33258 (#94403-1ML, 1:100; Merck, USA) at room temperature for 1 h. In the initial experiments of screening the potential neuroprotective compound for CIPN, ImageXpress^Micro (IXM) high-content imaging system (Molecular Devices, USA) driven by MetaXpress software was used. Images of treated cells were automatically acquired by using a 10× objective. Twenty-one images per well were taken in each of three channels (DAPI, FITC, and Cy5) to create a whole view of the entire neural network. The integrity of the neural network was evaluated using TIF images by importing them into MetaXpress software for analysis using the module for multiparameter, such as Neurite Outgrowth, Cell Scoring, and Transfluor. Furthermore, the score of synaptogenesis was analyzed in AcuityXpress software (Molecular Devices, USA).

C57BL/6 mice = experiment: Rotarod performance test (motor coordination); format: in vivo, mouse; conditions: pretreated CN016 + paclitaxel
Experimental: Three behavioral models of paclitaxel-induced neuropathy were used to verify the neuroprotective effect of CN016. Namely, thermal and mechanical nociceptive reactions described below were evaluated by tail immersion and von Frey filament tests, respectively, and motor coordination was assessed with the rotarod performance test (Supporting Information, Figure S1A,B). To mimic the clinical therapeutic regimen, CN016 (5, 10 and 20 mg/kg) was administrated to 7-week-old female C57BL/6 mice by intraperitoneal injection (IP) 1 h prior to each injection of paclitaxel (4.5 mg/kg) on four alternate days (days 1, 3, 5, and 7). Each test’s basal level was recorded before treatment, and additional sessions of behavior tests were performed weekly for five weeks (Figure 4A).
The baseline of every neurological behavior test was measured in 6-week-old C57BL/6J female mice prior to treatment. […] Mechanical hyperalgesia was evaluated by using von Frey filament (#2390, IITC Inc., USA), thermal sensitivity was determined by the tail immersion assay (water temperature: 48–49 °C), and motor coordination was assessed by rotarod (#7750, Ugo Basile Biological Research Apparatus, Italy). After the first drug implantation, the body weight was recorded every 6 days throughout the entire experiment.

ICR mice = experiment: Acute single-dose toxicity study; format: in vivo; conditions: for survival / survival rate: saline
Experimental: An acute single-dose toxicity study was conducted in male ICR mice. 7-week-old ICR male mice were intravenous bolus administered with CN016 dissolved in 0.9% sodium chloride solution by using dose escalation procedure to approach the toxicity of CN016. The treatment groups included 50, 100, 300, and 500 mg/kg dose levels and three to six mice for each group. The injection volume was calculated based on the individual body weight. […] Animal body weight was measured once daily during the 14 day observation period of the study. All animals were euthanized with 100% CO2 at the end of the study.

CYP 2C19 = biological target: T1, CYP 2C19 (Homo sapiens, UniProt P33261); experiment: Cytochrome P450 testing, CYP 2C19; format: in vitro ADME; conditions: mephenytoin 4-hydroxylation; read-out: Concentration of inhibition (IC50), CYP 2C19
T1 construct: host or cells: baculovirus-infected insect cells (supersomes)
Source text: Cytochrome P450 testing of CN016
The effects of CN016 on the activity of six specific human liver cytochrome P450 isozymes (CYP 1A2, 2C9, 2C19, 2D6, 2E1, 3A4) expressed in baculovirus-infected insect cell supersomes were studied. The reactions used to measure the activity of these enzymes were phenacetin O-deethylation (1A2), diclofenac 4-hydroxylation (2C9), mephenytoin 4-hydroxylation (2C19), dextromethorphan O-demethylation (2D6), chlorzoxazone 6-hydroxylation (2E1) and testosterone 6-hydroxylation (3A4).
Furafylline, sulfaphenazole, tranylcypromine, quinidine, diethyldithiocarbamate and azamulin were used as reference inhibitors of these enzymes. Incubation mixtures containing no CN016 or reference inhibitors were used as controls. The tested result […]
Table S4. Result of Cytochrome P450 testing of CN016

Adenosine A1 = Adenosine A1 (Homo sapiens, UniProt P30542); experiment: LeadProfilingScreen: Adenosine A1; format: binding
Dopamine D1 = Dopamine D1 (Homo sapiens, UniProt P21728); experiment: LeadProfilingScreen: Dopamine D1; format: binding
Neuropeptide Y Y1 = Neuropeptide Y Y1 (Homo sapiens, UniProt P25929); experiment: LeadProfilingScreen: Neuropeptide Y Y1; format: binding
Phorbol Ester = experiment: LeadProfilingScreen: Phorbol Ester; format: binding, mouse; conditions: 10 μM
Purinergic P2X = experiment: LeadProfilingScreen: Purinergic P2X; format: binding, rat; conditions: 10 μM
[2] = system: Purinergic P2Y, Non-Selective; experiment: LeadProfilingScreen: Purinergic P2Y, Non-Selective; format: binding, rat; conditions: 10 μM
Rolipram = experiment: LeadProfilingScreen: Rolipram; format: binding, rat; conditions: 10 μM
[3] = biological target: Transporter, Dopamine (DAT) (Homo sapiens, UniProt Q01959); experiment: LeadProfilingScreen: Transporter, Dopamine (DAT); format: binding

`O=P(O)(O)CCN1CCC(Nc2cc(N3CCOCC3)nc(NCc3cn(CCCO)nn3)n2)CC1` [CN016, {2-[4-(2-{[1-(3-Hydroxy-propyl)-1H-[1,2,3]triazol-4-ylmethyl]-amino}-6-morpholin-4-yl-pyrimidin-4-ylamino)-piperidin-1-yl]-ethyl}-phosphonic Acid Hydrobromide Salt] gave an activation at 1 µM ([1]; Table 1, A: neurite outgrowth (% of control) of test compound 1000 nM + paclitaxel 50 nM, B: paclitaxel 50 nM alone, DRG neurons, read-out: Neuroprotection rate = (A-B)±S.E.M [%]) of 21%, an activation at 1 µM ([1]; Table S2, test compound 1000 nM + paclitaxel 50 nM minus paclitaxel 50 nM, read-out: Neuroprotection rate = (A-B) ± S.E.M [%]) of 21 ± 0.77% and an activation at 1 µM ([1]; supplementary CSV, test compound 1000 nM, read-out: A-B (A: neurite outgrowth (% of control) of test compound (1000 nM) + paclitaxel (50 nM), B: of paclitaxel (50 nM))) of 21%. For the same compound, the “in vitro effective concentration” value ([1]; neurite outgrowth assay) was 10 nM, the “protective efficacy against paclitaxel-induced neurotoxicity (in words)” value ([1]; pretreated, + 50 nM paclitaxel, DRG neurons) was “exhibited protective efficacy” and the “increase of neurite length compared to the positive control (paclitaxel-treated alone)” value ([1]; pretreated, + 50 nM paclitaxel, Figure 3B) was 24–28%. The “motor coordination (rotarod test)” value (C57BL/6 mice) was “neither paclitaxel treatment nor pretreated CN016 affected motor coordination”, the survival (ICR mice; 50 mg/kg IV) was 3/3 and the survival rate (ICR mice; 50 mg/kg IV) was 100%. The survival (ICR mice; 100 mg/kg IV) was 6/6, the survival rate (ICR mice; 100 mg/kg IV) was 100% and the survival (ICR mice; 300 mg/kg IV) was 3/3. For the same compound, the survival rate (ICR mice; 300 mg/kg IV) was 100%, the survival (ICR mice; 500 mg/kg IV) was 3/3 and the survival rate (ICR mice; 500 mg/kg IV) was 100%. The “maximum tolerance dose (MTD)” value (ICR mice; intravenous, ICR mice) was greater than 500 mg/kg, the IC50 (CYP 2C19) was greater than 100 µM and the inhibition at 10 µM (Adenosine A1) was -9%. For the same compound, the inhibition at 10 µM (Dopamine D1) was -2%, the inhibition at 10 µM (Neuropeptide Y Y1) was -4% and the “Inhibition (%), Phorbol Ester” value (Phorbol Ester) was -3%. The “Inhibition (%), Purinergic P2X” value (Purinergic P2X) was -9%, the “Inhibition (%), Purinergic P2Y” value [2] was 9% and the “Inhibition (%), Rolipram” value (Rolipram) was 6%. It also gave an inhibition at 10 µM [3] of 0%.
